From patent US20210163532A1, “NOVEL M[…] PEPTIDES” (University of Florida Research Foundation, Incorporated, priority 2018, published 2021)

Experiments:
C57BL/6J mice [1] = experiment: Conditioned place preference / aversion (place conditioning); conditions: 2-day conditioning, i.c.v.: morphine 30 nmol, U50,488 100 nmol, cyclo[D-Phe-Pro-Sar-Phe] 0.1, 1 or 10 nmol
C57BL/6J mice [2] = experiment: 55° C. warm-water tail-withdrawal assay, antinociception (agonist activity); type: in vivo, mouse; conditions: for antinociception ED50 (and 95% confidence interval) / antinociceptive activity: i.c.v. administration; for antinociception ED50 values (printed EC50), i.p. route: i.p. administration
C57BL/6J mice [3] = conditions: 10 mg/kg i.p., over 2 h
C57BL/6J mice [4] = experiment: Rotarod assay; conditions: 10 mg/kg i.p.

Structure (SMILES) | place conditioning response (CPP or CPA) (C57BL/6J mice [1]) | antinociception ED50 (and 95% confidence interval) (C57BL/6J mice [2]) | antinociception ED50 values (printed EC50), i.p. route (C57BL/6J mice [2]) | ambulation (spontaneous locomotor activity) (C57BL/6J mice [3]) | respiration rate (C57BL/6J mice [3]) | antinociceptive activity (C57BL/6J mice [2]) | duration of antinociception (C57BL/6J mice [2]; 10 nmol dose, i.c.v.) | antinociceptive potency relative to morphine (C57BL/6J mice [2]; i.c.v., ratio of ED50 values) | antinociceptive activity after peripheral administration (C57BL/6J mice [2]; i.p. and p.o. routes) | coordinated locomotor activity (rotarod latency to fall) (C57BL/6J mice [4])
CN1CC[C@]23c4c5ccc(O)c4O[C@H]2[C@@H](O)C=C[C@H]3[C@H]1C5 [morphine, reference compound] | significant place preference response | 2.35 (1.13-5.03) nmol | 3.91 (2.92-5.17) mg/kg | significant, time-dependent increase in ambulation | significantly reduced respiration for the first 40 min |  |  |  |  | 
C[C@@H]1C(=O)N[C@@H](Cc2ccccc2)C(=O)N[C@H](Cc2ccccc2)C(=O)N2CCC[C@H]2C(=O)N1C [cyclo[D-Phe-Pro-D-NMe-Ala-Phe]] (cyclo(F[dF]P[dNMeA])) |  |  |  |  |  | does show antinoiception at higher dosages |  |  |  | 
CN1CC(=O)N[C@@H](Cc2ccccc2)C(=O)N[C@H](Cc2ccccc2)C(=O)N2CCC[C@H]2C1=O [cyclo[D-Phe-Pro-Sar-Phe]] (cyclo(F[dF]P[Sar])) | neither a significant preference for, nor aversion to, the drug paired chamber | 0.11 nmol and 0.11 (0.05-0.21) nmol | 1.91 (0.40-3.54) mg/kg |  | without significant effect at any time point tested | significant time- and dose-dependent antinociceptive activity | up to 80 min | 21.4 fold | dose-dependent transient antinociceptive activity | did not differ in effect from vehicle-treated animals

Several values for one entry are separate records, joined by “and”; a condition that tells them apart may be missing. Equal values may be shown once. Where a SMILES comes first, the peptide text is derived from it. [ ]: non-standard residue; d: D form. dNMeA = CN[C@H](C)C(=O)O; Sar = CNCC(=O)O
